Chains of the proteins cited; added tags and fusions are not shown. Residues count along the entry.
UniProt P34969, 1-445 isoform P34969-2: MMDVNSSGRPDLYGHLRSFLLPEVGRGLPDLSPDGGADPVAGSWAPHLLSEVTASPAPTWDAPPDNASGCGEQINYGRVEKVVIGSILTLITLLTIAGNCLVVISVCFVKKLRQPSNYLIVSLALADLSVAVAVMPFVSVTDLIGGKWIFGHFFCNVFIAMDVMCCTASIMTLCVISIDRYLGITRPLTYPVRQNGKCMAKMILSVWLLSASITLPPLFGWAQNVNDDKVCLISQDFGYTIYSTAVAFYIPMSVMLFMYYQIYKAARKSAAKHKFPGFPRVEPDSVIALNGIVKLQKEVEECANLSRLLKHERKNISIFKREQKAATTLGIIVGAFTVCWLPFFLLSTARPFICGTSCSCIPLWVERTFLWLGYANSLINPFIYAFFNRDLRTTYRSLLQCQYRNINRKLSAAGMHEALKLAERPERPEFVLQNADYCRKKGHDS

According to patent US6432655B1, “Method of obtaining compositions” (Synaptic Pharmaceutical Corporation, priority 1992, dated 2002):

How the values were obtained:
[1] = target: T1, human 5-HT4B receptor (clone hp78a) (Homo sapiens, UniProt P34969); assay: [3H]5-HT radioligand binding to membranes of Cos-7 cells transiently expressing clone hp78a; conditions: read-out: Ki (apparent dissociation constants for clone hp78a)
T1 construct: The entire coding region of the human 5-HT4B receptor (1338 bp); expressed in transfected cells; host or cells: Cos-7 (monkey kidney), transient, plasmid hp78a/EXJ (pcEXV-5HT4B)

human 5-HT4B receptor [2] = target: T2, human 5-HT4B receptor (Homo sapiens, UniProt P34969); assay: cAMP formation in intact, transiently transfected Cos-7 cells; assay type: cell-based
T2 construct: The entire coding region of the human 5-HT4B receptor (1338 bp); expressed in transfected cells

human 5-HT4B receptor [3] = target: T2, human 5-HT4B receptor; assay type: cell-based
[4] = test system: 5-HT receptor present in glial membranes; conditions: Fillion et al., 1980; property shared with hp78a; cited from earlier work

## CCCN(CCC)C1CCc2cccc(O)c2C1 (stereo not shown)
[1]
  Ki: 0.466 ± 0.046 µM
Human 5-HT4B receptor [2]; 1 μM drug, relative to basal levels
  FOLD cAMP STIMULATION: 1.7 ± 0.4
Human 5-HT4B receptor [3]
  response relative to the maximum response elicited by 5-HT: approximately half
Human 5-HT4B receptor [3]; cAMP response, mean ± S.E.M., at least 3 experiments
  EC50: 17.2 µM

## NCCc1c[nH]c2ccc(C(N)=O)cc12 [5-CT, 5-Carboxamidotryptamine]
Human 5-HT4B receptor [2]
  increase in cAMP release over basal levels: 20 fold
  maximum stimulation (Emax value): 2029±47 % basal cAMP release

## CSc1ccc2c(c1)C(N1CCN(C)CC1)Cc1ccccc1S2 (stereo not shown) [Methiothepin]
[4]
  antagonism: Potent antagonism
